This data set in a line: in vivo monitoring of radiolabeled analyte uptake in tissue with subcutaneous fiber optic beta radiation probes.

For C-14 labeled 5-Fluorouracil [^14C-5FU], for the setting “120 μCi IV in tail vein, 300 gram Fisher 344 rat, probes in flank tumor and normal scapula tissue, study #6, FIG. 12B”, the “time after dosing within which concentrations peak” value lay within 10 to 30 min. Also, the “time of ^14C concentration peak, tumor tissue versus normal tissue” value (120 μCi IV in tail vein, 300 gram Fisher 344 rat, study #6, FIG. 12B) is recorded as “peaks earlier in the tumor tissue than in the normal tissue”. The “absorption into flank tissue and scapular tumor after injection” value (250 μCi intraperitoneal, tumor bearing 270 g Fisher 344 rat, dual probe, study #5, FIG. 12A) is on record as “relatively slowly absorbed”. Also, the “time from injection after which ^14C concentrations continue to rise” value (250 μCi intraperitoneal, tumor bearing 270 g Fisher 344 rat, study #5, FIG. 12A) was 90 to 100 min.

For the origin of these results see patent publication US7011814B2, “Systems, methods and devices for in vivo monitoring of a localized response via a radiolabeled analyte in a subject” (Sicel Technologies, Inc., priority 2001, dated 2006).
